For 1 substance, tissue integrity results are on record in patent US20250114362A1, “METHODS AND COMPOSITIONS FOR TREATMENT OF CUTANEOUS PROLIFERATIVE DISORDERS AND OTHER SKIN CONDITIONS” (ASYMMETRIC THERAPEUTICS, LLC, priority 2022, published 2025).

The test system of this data set is MatTek human PSE culture system (SOR-300-FT). As to the kind of experiment: MatTek human PSE culture system, tissue layer thickness and histology. Particulars: 100 nM Vitamin D.

As for Vitamin D, the tissue integrity entry is “separation of a thinned dermis and the epidermis layers”.
